Measured values as given in ChEMBL document CHEMBL1148456, “Structure-based design and synthesis of non-nucleoside, potent, and orally bioavailable adenosine deaminase inhibitors” (J Med Chem, 2004).

Target: T1, Adenosine deaminase (Homo sapiens, UniProt P00813)
T1 sequence (P00813 whole entry): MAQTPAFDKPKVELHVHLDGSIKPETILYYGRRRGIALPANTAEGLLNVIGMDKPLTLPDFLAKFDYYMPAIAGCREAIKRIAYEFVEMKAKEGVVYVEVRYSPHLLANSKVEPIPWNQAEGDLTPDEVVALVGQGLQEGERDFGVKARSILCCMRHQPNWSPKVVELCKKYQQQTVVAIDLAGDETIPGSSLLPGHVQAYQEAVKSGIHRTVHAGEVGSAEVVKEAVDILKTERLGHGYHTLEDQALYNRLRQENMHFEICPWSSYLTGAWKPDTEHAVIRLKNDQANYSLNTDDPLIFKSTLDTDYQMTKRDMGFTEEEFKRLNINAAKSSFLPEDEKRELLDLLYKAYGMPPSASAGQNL

Row | SMILES | Ki
1 | NC(=O)c1cn(C(CO)CCc2cccc3ccccc23)cn1 (centres undefined) | 680 nM
2 | C[C@H](O)[C@@H](CCc1cccc(Cl)c1Cl)n1cnc(C(N)=O)c1 | 13 nM
3 | C[C@H](O)[C@@H](CCOc1ccc2ccccc2c1)n1cnc(C(N)=O)c1 | 9.8 nM
4 | C[C@H](O)[C@@H](CCc1cccc2ccccc12)n1cnc(C(N)=O)c1 | 11 nM
